Measured values as given in PubChem BioAssay (Tox21).
Only a part is listed here, and it is no random draw. Results filed as inconclusive are left out. Active and inactive are the calls of the source. Unless noted, calls come from the whole dose curve; as a rule, active = well fitted curve in the direction sought with a large enough effect in the repeat runs; inconclusive = weak or mixed curves; inactive = no such curve, though single readings can be large; an effect the other way counts as inactive or inconclusive.

Chains of the proteins cited; added tags and fusions are not shown.
UniProt P04150, whole entry: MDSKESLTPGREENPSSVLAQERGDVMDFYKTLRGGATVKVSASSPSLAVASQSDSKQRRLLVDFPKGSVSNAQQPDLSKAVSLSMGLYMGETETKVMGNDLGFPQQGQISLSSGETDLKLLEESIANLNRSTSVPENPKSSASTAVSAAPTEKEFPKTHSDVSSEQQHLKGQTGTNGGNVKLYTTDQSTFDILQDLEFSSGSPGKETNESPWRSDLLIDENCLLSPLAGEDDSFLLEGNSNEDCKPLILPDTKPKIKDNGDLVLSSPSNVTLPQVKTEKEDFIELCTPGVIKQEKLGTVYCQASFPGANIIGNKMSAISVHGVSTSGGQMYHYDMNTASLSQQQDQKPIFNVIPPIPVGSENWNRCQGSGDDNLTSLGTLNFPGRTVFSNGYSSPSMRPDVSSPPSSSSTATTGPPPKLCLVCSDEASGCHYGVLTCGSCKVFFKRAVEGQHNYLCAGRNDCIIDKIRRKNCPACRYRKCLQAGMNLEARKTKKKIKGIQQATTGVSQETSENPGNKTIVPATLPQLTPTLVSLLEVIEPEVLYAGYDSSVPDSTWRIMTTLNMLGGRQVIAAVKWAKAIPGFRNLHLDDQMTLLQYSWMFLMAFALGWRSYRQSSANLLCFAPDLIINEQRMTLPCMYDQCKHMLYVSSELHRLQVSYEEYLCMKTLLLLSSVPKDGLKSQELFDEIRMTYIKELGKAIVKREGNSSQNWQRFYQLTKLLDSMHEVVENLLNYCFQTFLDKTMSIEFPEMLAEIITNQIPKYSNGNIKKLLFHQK

Legend:
[1] = qHTS assay for small molecule agonists of the p53 signaling pathway (AID 651631; calls by dose curve; note: nearly all actives have a fitted effect of over 15% in size)
Procedure, shortened: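 Beta-lactamase reporter activity under p53 response elements was quantified in HCT-116 cells by FRET fluorescence, following 16 h incubation with test compounds at 37 °C and 2 h substrate development at room temperature.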

[2] = qHTS assay for small molecules that induce genotoxicity in human embryonic kidney cells expressing luciferase-tagged ATAD5 (AID 651632); details: HEK293T ATAD5-luciferase induction, 16 h; at 83.3 µM (top of the series); note: nearly all actives have a fitted effect of over 15% in size
Procedure, shortened: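 DMSO vehicle served as the control. HEK293T reporter cells, 16 hr at 37C, then 30 min Amplite at room temperature; ATAD5 induction is measured as luciferase activity.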

[3] = qHTS assay for small molecule agonists of the p53 signaling pathway - cell viability (AID 651633; calls by dose curve;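 note: p53RE-bla HCT reporter cells with a stable beta-lactamase p53 reporter; nearly all actives have a fitted effect of over 30% in size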); details: p53RE-bla HCT-116 viability, ATP luminescence, 16 h; at 83.3 µM (top of the series)
Procedure, shortened: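 p53RE-bla cells, seeded at 4,000 per well and rested 5 h at 37 C/5% CO2, received compounds in DMSO for 16 h at 37 C. CellTiter-Glo was then added, and luminescence was read after 30 min at room temperature to gauge cytotoxicity.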

[4] = qHTS assay for small molecules that induce genotoxicity in human embryonic kidney cells expressing luciferase-tagged ATAD5 - cell viability (AID 651634; calls by dose curve; note: nearly all actives have a fitted effect of over 25% in size); details: HEK293T ATAD5-luc cells viability, CellTiter-Fluor, 15.5 h; at 83.3 µM (top of the series)
Procedure, shortened: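 Here HEK293T cells with the ATAD5 luciferase reporter are incubated with test compounds for 15.5 hr, and cytotoxicity is then gauged by measuring protease activity in live cells using fluorescence.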

[5] = qHTS assay for small molecule disruptors of the mitochondrial membrane potential - cell viability (AID 720634; calls by dose curve;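 note: human HepG2 liver cancer cells; nearly all actives have a fitted effect of over 20% in size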); details: HepG2 viability, ATP luminescence (CellTiter-Glo), 1 h; at 83.2 µM (top of the series)
Procedure, shortened: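 Viability of HepG2 cells is scored from ATP content by luminescence; cells are exposed to compound for 1 hr at 37 C and 5% CO2, then dosed with m-MPI dye before the CellTiter-Glo reagent.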

[6] = qHTS assay to test for compound auto fluorescence at 590 nm (red) in HepG2 cells (AID 720674); details: HepG2 autofluorescence, red 540/590 nm, 1 h
Procedure, shortened: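 Intrinsic compound fluorescence in the red window (Ex/Em 540/590 nm) is measured in attached HepG2 cells exposed for 1 hr, DMSO vehicle as baseline, benchmarked to Rose Bengal sodium.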

[7] = qHTS assay to test for compound auto fluorescence at 535 nm (green) in HepG2 cells (AID 720675); details: green autofluorescence 485/535 nm, 1 h
[8] = qHTS assay to test for compound auto fluorescence at 460 nm (blue) in HEK293 cells (AID 720678); details: blue autofluorescence 405/460 nm
Procedure, shortened: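 Blue-channel (Ex/Em 405/460 nm) intensity measured in HEK293 cultures after overnight compound exposure at 37C; signal expressed relative to triamterene. Cells plated 2,000 per well in 10% dialyzed FBS medium and allowed 4-5 hr to attach.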

[9] = qHTS assay to test for compound auto fluorescence at 590 nm (red) in HEK293 cells (AID 720679); details: red autofluorescence 540/590 nm
Procedure, shortened: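 Red-channel autofluorescence (Ex/Em 540/590 nm; Rose Bengal sodium reference) was measured after overnight 37C, 5% CO2 exposure of attached HEK293 cells, 2,000 per well in medium with 10% dialyzed FBS.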

[10] = qHTS assay to test for compound auto fluorescence at 535 nm (green) in HEK293 cells (AID 720680); details: green autofluorescence 485/535 nm
[11] = qHTS assay to test for compound auto fluorescence at 460 nm (blue) in HEK293 cell free culture (AID 720681); details: cell-free medium, autofluorescence 405/460 nm (blue)
Procedure, shortened: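 Test compounds were pinned into cell-free culture medium (DMEM with 10% FBS) and fluorescence was read directly at Ex/Em 405/460 nm. Signals were expressed as fluorescence equivalents of triamterene, with DMSO vehicle as control.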

[12] = qHTS assay to test for compound auto fluorescence at 535 nm (green) in HEK293 cell free culture (AID 720682); details: cell-free medium, green autofluorescence 485/535 nm, active compounds read high
Procedure, shortened: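 Each library compound, or DMSO control, is added by pintool to medium alone, comprising DMEM and 10% FBS. Emission at 535 nm following 485 nm excitation is quantified against fluorescein.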

[13] = qHTS assay to test for compound auto fluorescence at 590 nm (red) in HEK293 cell free culture (AID 720683); details: cell-free medium autofluorescence, Ex540/Em590 red
Procedure, shortened: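 Tox21 10K library compounds were pinned into cell-free DMEM with 10% FBS and fluorescence was read at excitation 540 nm. Activity is expressed as Rose Bengal sodium equivalency.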

[14] = qHTS assay to test for compound auto fluorescence at 590 nm (red) in HepG2 cell free culture (AID 720684); details: cell-free medium autofluorescence, red 540/590 nm
Procedure, shortened: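 Readout: intrinsic compound fluorescence at 590 nm emission after 540 nm excitation, scaled to Rose Bengal sodium. Matrix was cell-free MEM with 10% FBS; DMSO vehicle wells served as control.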

[15] = qHTS assay to test for compound auto fluorescence at 460 nm (blue) in HepG2 cell free culture (AID 720685); details: Cell-free culture medium, blue autofluorescence 405/460 nm
Procedure, shortened: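 Cell-free plates of MEM plus 10% FBS received 23 nL compound or DMSO vehicle; blue-channel (405/460 nm) intensity scored against triamterene as reference fluorophore.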

[16] = qHTS assay to test for compound auto fluorescence at 535 nm (green) in HepG2 cell free culture (AID 720686); details: Cell-free medium, green autofluorescence 485/535 nm
[17] = qHTS assay to test for compound auto fluorescence at 460 nm (blue) in HepG2 cells (AID 720687); details: autofluorescence 405/460 nm, 1 h
Procedure, shortened: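 Cells (2,000/well in MEM with 10% FBS) attached overnight at 37 C, then were exposed to compound or DMSO for 1 hr at 37 C, 5% CO2. Fluorescence read at Ex/Em 405/460 nm, expressed as triamterene-equivalent signal.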

[18] = biological target: Glucocorticoid receptor (Homo sapiens) (UniProt P04150); experiment: qHTS assay to identify small molecule agonists of the glucocorticoid receptor (GR) signaling pathway (AID 720691; active = well fitted activation curve with a large enough effect in the signal ratio in the repeat runs, not every such curve was filed as active; the % refers to the signal ratio); details: GR-bla HeLa, beta-lactamase reporter ratio, 18 h; at 62.4 µM (top of the series)
[19] = biological target: Glucocorticoid receptor (Homo sapiens) (UniProt P04150); experiment: qHTS assay to identify small molecule antagonists of the glucocorticoid receptor (GR) signaling pathway (AID 720692; active = well fitted inhibition curve with a large enough effect in the signal ratio in the repeat runs, not every such curve was filed as active; the % refers to the signal ratio); details: GR-bla HeLa, beta-lactamase FRET ratio, dexamethasone-stimulated, 18 h; at 58.5 µM (top of the series)
[20] = qHTS assay for small molecule disruptors of the mitochondrial membrane potential (AID 720635); details: HepG2 mitochondrial membrane potential, Mito-MPS dye ratio; at 83.2 µM (top of the series)
Procedure, shortened: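 HepG2 cells (2,000/well) attached overnight at 37C, then took compound for 1 hr at 37C, 5% CO2. Mito-MPS dye was added for 30 min; fluorescence was read at 490/535 nm (monomers) and 540/590 nm (aggregates).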
% is set by controls: 0 for no effect and ±100 for the full control effect.

CCC(=O)N(c1ccccc1)C1(COC)CCN(CCc2cccs2)CC1
inactive: Potency [1] | activation [2] -7.98% | activity change, negative = cytotoxicity [3] -17.7% | activity, negative = cytotoxicity [4] -21.6% | activity change, negative = cytotoxicity [5] -8.94% | fluorescence, relative to Rose Bengal ([6]; at 91.3 µM (top of the series)) 0.225% | fluorescence, % of fluorescein control ([7]; at 91.3 µM (top of the series)) -0.0734% | fluorescence, % of triamterene ([8]; at 91.3 µM (top of the series)) -0.148% | fluorescence, % of fluorescent control ([9]; at 91.3 µM (top of the series)) -0.114% | fluorescence, % of fluorescein ([10]; at 91.3 µM (top of the series)) -0.0434% | fluorescence, % of fluorescent control ([11]; at 91.3 µM (top of the series)) 0.0219% | activity change ([12]; at 91.3 µM (top of the series)) 0.0788% | fluorescence, % of fluorescent control ([13]; at 91.3 µM (top of the series)) 0.353% | fluorescence, % of Rose Bengal ([14]; at 91.3 µM (top of the series)) 0.0245% | fluorescence, % of fluorescent control ([15]; at 91.3 µM (top of the series)) -0.0139% | fluorescence, % of fluorescein control ([16]; at 91.3 µM (top of the series)) 0.0084% | fluorescence, % of fluorescent control ([17]; at 91.3 µM (top of the series)) -0.0847% | activation [18] -3.78% | activity change, negative = inhibition [19] -22.7%

CCC(=O)N(c1ccccc1)C1CCN(CCc2ccccc2)CC1
inactive: Potency [1] | activation [2] -1.41% | activity change, negative = cytotoxicity [3] 33% | activity, negative = cytotoxicity [4] 11.4% | activity change, negative = cytotoxicity [5] -4.58% | ratio activity, negative = MMP loss [20] 4.91% | fluorescence, relative to Rose Bengal ([6]; at 46 µM (top of the series)) -0.0203% | fluorescence, % of fluorescein control ([7]; at 46 µM (top of the series)) -0.0127% | fluorescence, % of triamterene ([8]; at 46 µM (top of the series)) -0.0187% | fluorescence, % of fluorescent control ([9]; at 46 µM (top of the series)) -0.0176% | fluorescence, % of fluorescein ([10]; at 46 µM (top of the series)) 0.0036% | fluorescence, % of fluorescent control ([11]; at 46 µM (top of the series)) -0.168% | activity change ([12]; at 46 µM (top of the series)) -0.0248% | fluorescence, % of fluorescent control ([13]; at 46 µM (top of the series)) -0.594% | fluorescence, % of Rose Bengal ([14]; at 46 µM (top of the series)) -0.11% | fluorescence, % of fluorescent control ([15]; at 46 µM (top of the series)) -0.0121% | fluorescence, % of fluorescein control ([16]; at 46 µM (top of the series)) 0.008% | fluorescence, % of fluorescent control ([17]; at 46 µM (top of the series)) -0.144% | activation [18] 0.167%

O=[N+]([O-])C(Cl)(Cl)Cl
inactive: Potency [1] | activation [2] -0.507% | activity change, negative = cytotoxicity [3] -17.9% | activity, negative = cytotoxicity [4] 14.8% | activity change, negative = cytotoxicity [5] 3.73% | fluorescence, relative to Rose Bengal ([6]; at 91.3 µM (top of the series)) 0.0061% | fluorescence, % of triamterene ([8]; at 91.3 µM (top of the series)) 0.135% | fluorescence, % of fluorescent control ([9]; at 91.3 µM (top of the series)) -0.0274% | fluorescence, % of fluorescein ([10]; at 91.3 µM (top of the series)) -0.0986% | fluorescence, % of fluorescent control ([11]; at 91.3 µM (top of the series)) -0.132% | activity change ([12]; at 91.3 µM (top of the series)) 0.0968% | fluorescence, % of fluorescent control ([13]; at 91.3 µM (top of the series)) 0.349% | fluorescence, % of Rose Bengal ([14]; at 91.3 µM (top of the series)) 0.0939% | fluorescence, % of fluorescent control ([15]; at 91.3 µM (top of the series)) 0.17% | fluorescence, % of fluorescein control ([16]; at 91.3 µM (top of the series)) 0.0007% | fluorescence, % of fluorescent control ([17]; at 91.3 µM (top of the series)) -0.0043% | activation [18] 1.27% | activity change, negative = inhibition [19] 3.92%
